Assays:
[1] = molecular target: Flag-AR 4CG (C125, 290, 327, 406G) (human) (UniProt P10275); test: co-IP; AR IP from PC3M/HA-Parp7 cells stably expressing Flag-tagged WT AR or Cys-to-Gly mutants, treated +R1881; probed for AR, ADP-ribosylation, Dtx3L and Parp9
Af1521 = molecular target: T1, Af1521 (Archaeoglobus fulgidus, UniProt O28751)
T1 construct: gene AF_1521

complex formation, percent of WT [1] | Compound | competition of ADP-ribosylated AR pull-down on GST-Af1521 beads (Af1521)
50 % of WT | Dtx3L (from UniProt Q8TDB6 1-740) (enzyme) | 
 | Nc1ncnc2c1ncn2[C@@H]1O[C@H](COP(=O)(O)OP(=O)(O)OC[C@H]2OC(O)[C@H](O)[C@@H]2O)[C@@H](O)[C@H]1O (some centres unmarked) [ADP-ribose] | also bound to GST-Af1521 beads, was dependent on R1881 pretreatment of the cells, and was competitively inhibited by ADP-ribose

Source: publication PMC8113490, “Androgen signaling uses a writer and a reader of ADP-ribosylation to regulate protein complex assembly” (Nature Communications, 2021)
